Assay results as given in patent US20020168748.

Legend:
[1] = test system: peptide KCVVL (C-terminus of CaRho1)
[2] = test system: peptide GKKKKKKSKTKCVIM (C-terminus of K-ras4B)
[3] = test system: peptide DDGTQGCMGLPCVVM (C-terminus of N-Ras)
[4] = test system: peptide DESGPGCMSCKCVLS (C-terminus of H-ras)

human GGTase (hGGTase)
prenylation of the peptide [1]: +
prenylation of the peptide [2]: +

human FTase (hFTase)
prenylation of the peptide [2]: +
prenylation of the peptide [3]: +
prenylation of the peptide [4]: +
